Test results as given in article PMC4459640.

Substrate: CN1CC[C@]23c4c5ccc(O)c4O[C@H]2[C@@H](O)C=C[C@H]3[C@H]1C5
Experiment: not read
Settings: other: Michaelis-Menten, pH 7.5

B1: human SULT1A3 (Homo sapiens) (protein)
chain: MELIQDTSRPPLEYVKGVPLIKYFAEALGPLQSFQARPDDLLINTYPKSGTTWVSQILDMIYQGGDLEKCNRAPIYVRVPFLEVNDPGEPSGLETLKDTPPPRLIKSHLPLALLPQTLLDQKVKVVYVARNPKDVAVSYYHFHRMEKAHPEPGTWDSFLEKFMAGEVSYGSWYQHVQEWWELSRTHPVLYLFYEDMKENPKREIQKILEFVGRSLPEETMDFMVQHTSFKEMKKNPMTNYTTVPQELMDHSISPFMRKGMAGDWKTTFTVAQNERFDADYAEKMAGCSLSFRSEL
B1 gave a Vmax greater than 0.003 µmol/min/mg.
